The values below come from patent US9649382B2, “Topical bioadhesive formulations” (CAMURUS AB, priority 2005, dated 2017).

This series can be described thus: Depot injected into rat periodontal pocket. In kind it is in vivo. The note with it: 100 μL PC/GDO/EtOH/chlorhexidine (35/53/10/2) injected into rat periodontal pocket. Here is the method: In order to treat periodontitis or perimplantitis an antibacterial formulation is injected in the periodontal pocket, and a prolonged effect of the formulation is normally desired. 100 μL of a formulation as prepared in Example 1, with the addition of the antibiotic chlorohexidine (PC/GDO/EtOH/chlorhexidine (35/53/10/2)), is injected via a syringe into a rat peridontal pocket. The injected composition is observed to transform from the low viscous formulation, and which initially spreads out to fill voids, to form a solid mass by uptake of gingival fluids. An antibacterial depot system is thus provided.
An alternate antibacterial formulation was provided by a formulation prepared as described in Example 1 and containing the antibacterial detergent Gardol (Glycine, N-methyl-N-(1-oxododecyl)-, sodium salt) (PC/GDO/EtOH/Gardol (34/51/10/5)). This formulation is injected into the rat periodontal pocket.
Gardol is observed to remain at clinically effective levels in the GCF of the periodontal pockets for a prolonged period (several days).

For the substance chlorhexidine, the “time chlorhexidine remains at clinically effective levels in the GCF of the periodontal pockets” value is listed as “over 1 week”.
